Assay results reported in patent US20180289802A1.

Sequences of proteins named here, by UniProt entry; tags and fusion partners are left off. Residues count along the entry.
UniProt P12314, 16-374 limits assumed: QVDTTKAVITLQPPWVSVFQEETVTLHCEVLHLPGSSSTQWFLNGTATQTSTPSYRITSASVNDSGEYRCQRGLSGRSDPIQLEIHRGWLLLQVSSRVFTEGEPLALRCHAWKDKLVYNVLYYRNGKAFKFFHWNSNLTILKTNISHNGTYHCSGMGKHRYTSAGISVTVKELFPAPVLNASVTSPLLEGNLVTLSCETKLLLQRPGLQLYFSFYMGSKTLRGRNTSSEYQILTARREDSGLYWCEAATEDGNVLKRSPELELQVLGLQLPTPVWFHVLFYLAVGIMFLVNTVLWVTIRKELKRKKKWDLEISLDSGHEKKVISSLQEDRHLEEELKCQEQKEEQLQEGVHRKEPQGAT

Experiments:
FcγRI expressed on cells = FcγRI expressed on cells (UniProt P12314); test: Cisbio Tag-lite displacement (FRET) on HEK293 cells expressing terbium-labelled FcγRI; competitor human IgG-d2
FcγRIIb = test: Cisbio Tag-lite displacement (FRET) on HEK293 cells expressing terbium-labelled FcγRIIb; competitor human IgG-d2

EC50 (FcγRI expressed on cells): 0.0331 µM
EC50 (FcγRIIb): 9.75 µM
Substance: Cetuximab (antibody)
